Values quoted from earlier work, collected in patent US20230143984A1, “COLLOIDAL CARRIER SYSTEMS FOR TRANSFER OF AGENTS TO A DESIRED SITE OF ACTION” (Heidelberg University, priority 2020, published 2023).
Entries after “also recorded” stand apart in the source; their conditions may differ.

Tested on: long-term potentiation (LTP) in brain slices
Conditions: applied to brain slices in vitro; Richter et al., 2018

Sequence: DAEFRHDSGYEVHHQK (human APPs alpha fragment; listed as Homo sapiens) [CTα16]
- effect on long-term potentiation / synaptic plasticity: same effects in terms of long-term potentiation as the complete protein APPsα; also recorded: enhances synaptic plasticity
